Values quoted from earlier work in publication PMC2361662 (British Journal of Cancer, 2005).

Target: T1, EGFRvIII (Homo sapiens, UniProt P00533, DELINS30-297G)
T1 construct: expressed in transfected cells; host or cells: NR6M (derivative of NR6 fibroblasts)
Set-up: method as in Montgomery, 2002
Conditions: dimers had increased phosphotyrosine load; ref Montgomery, 2002; cited from earlier work

COc1cc2ncnc(Nc3cccc(Cl)c3)c2cc1OC [AG1478]
Concentration range inducing dimers of EGFRvIII: 0.001 to 0.01 µM
